Drawing on US9616065B2, “Compositions useful in treating brain-related diseases or disorders and methods using same” (priority 2013, dated 2017), this text covers Ki for three compounds.

Sequences of proteins named here, by UniProt entry; tags and fusion partners are left off.
UniProt Q3I1M7, entry or part of it: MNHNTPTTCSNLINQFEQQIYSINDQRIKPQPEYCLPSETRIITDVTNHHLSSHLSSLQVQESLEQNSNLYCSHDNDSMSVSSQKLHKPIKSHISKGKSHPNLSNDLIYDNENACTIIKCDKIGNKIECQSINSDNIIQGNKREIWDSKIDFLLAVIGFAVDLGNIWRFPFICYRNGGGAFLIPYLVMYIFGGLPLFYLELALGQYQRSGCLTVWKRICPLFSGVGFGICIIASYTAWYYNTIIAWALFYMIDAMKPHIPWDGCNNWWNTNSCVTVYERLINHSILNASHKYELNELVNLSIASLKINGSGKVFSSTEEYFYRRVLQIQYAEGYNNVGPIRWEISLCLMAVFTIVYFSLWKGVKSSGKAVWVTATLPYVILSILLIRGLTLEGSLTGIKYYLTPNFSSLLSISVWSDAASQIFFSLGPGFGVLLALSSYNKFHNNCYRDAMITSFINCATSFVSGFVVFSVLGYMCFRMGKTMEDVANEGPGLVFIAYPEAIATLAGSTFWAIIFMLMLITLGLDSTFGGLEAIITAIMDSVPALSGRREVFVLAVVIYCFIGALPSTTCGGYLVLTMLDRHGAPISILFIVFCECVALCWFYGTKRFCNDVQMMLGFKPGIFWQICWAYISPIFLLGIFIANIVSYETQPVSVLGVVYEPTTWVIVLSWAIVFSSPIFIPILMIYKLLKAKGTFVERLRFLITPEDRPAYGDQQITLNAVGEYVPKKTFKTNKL

This experiment has as its target SmSERT (Schistosoma mansoni, UniProt Q3I1M7). Put plainly: Transport inhibition constants, SmSERT. Format: cell-based.

One may read the Ki as the dissociation constant of the complex between target and ligand, obtained from inhibition or displacement.

Take `CN(C)CCCC1(c2ccc(F)cc2)OCc2cc(C#N)ccc21` (stereo not drawn) [Citalopram]: the Ki was determined as 250 ± 100 nM.
`CN(C)CCCN1c2ccccc2CCc2ccc(Cl)cc21` [Clomipramine] yielded a Ki of 200 ± 100 nM.
For the compound `Fc1ccc([C@@H]2CCNC[C@H]2COc2ccc3c(c2)OCO3)cc1` [Paroxetine], the inhibitory constant (Ki) was 100 ± 100 nM.
